“Also recorded” adds a separate entry of the source.

1 substance from patent publication US20230365492A1, “LITHIUM ORGANIC ACID-AMINO ACID SALT, AND CRYSTAL FORM, COMPOSITION AND APPLICATION THEREOF” (ANYU BIOTECHNOLOGY (HANGZHOU) CO., LTD., priority 2020, published 2023) can be followed below.

The subject of the series is HEK293 cells. Briefly: CCK-8 cytotoxicity test on HEK293 cells. In kind it is cell-based. As to conditions: 0-50 mM, 12 and 24 hours, absorbance 450 nm. The procedure: The absorbance was read by a microplate reader at 450 nm (results are expressed as mean±standard error).
Under conventional culture conditions, HEK293 cells were treated with lithium isobutyrate (represented by a black dotted line) or a lithium isobutyrate-L-proline salt (represented by a black solid line) with a concentration of 0, 0.7, 1.56, 3.12, 6.25, 12.5, 25 and 50 mM for 12 and 24 hours, and then detected by a CCK-8 test to obtain the cytotoxicity. The absorbance was read by a microplate reader at 450 nm (results are expressed as mean±standard error).

lithium isobutyrate-L-proline salt: the “cytotoxicity / survival of HEK293 cells (CCK-8)” value is “no obvious difference in the survival of the treated cells; also recorded: no significant influence on the survival of HEK293 cells”.
